Reference: patent US20070129568A1, “Ionic liquids” (nGimat, Co., priority 2005, published 2007)

Experiments:
[1] = Room temperature evaporation rate: rate of weight loss in a stream of 25° C. nitrogen relative to n-butyl acetate; type: physicochemical; conditions: relative to n-butyl acetate under the same conditions
Procedure: Most compounds released by manufacturing processes affect the environment in some manner. […] The room temperature evaporation rates of some of the ILs described in the present invention were compared to several well known compounds by measuring the rate of weight loss in a stream of 25° C. nitrogen relative to the rate of weight loss of n-butyl acetate under the same conditions.

[2] = range of 43 organic solvents

Substance | Evaporation Rate (n-Butyl Acetate = 1) [1] | Solubility in the tested organic solvents [2]
Nickel (II) 2-ethylhexanoate [Ni(2eh)2] | <0.001 | 
aluminum (III) 2-ethylhexanoate [Al(2eh)3] |  | only found to dissolve in carbon tetrachloride
